{"sequences": {"note": "The chains behind the UniProt entries cited, without tags or fusion partners.", "UniProt P20272, whole entry": "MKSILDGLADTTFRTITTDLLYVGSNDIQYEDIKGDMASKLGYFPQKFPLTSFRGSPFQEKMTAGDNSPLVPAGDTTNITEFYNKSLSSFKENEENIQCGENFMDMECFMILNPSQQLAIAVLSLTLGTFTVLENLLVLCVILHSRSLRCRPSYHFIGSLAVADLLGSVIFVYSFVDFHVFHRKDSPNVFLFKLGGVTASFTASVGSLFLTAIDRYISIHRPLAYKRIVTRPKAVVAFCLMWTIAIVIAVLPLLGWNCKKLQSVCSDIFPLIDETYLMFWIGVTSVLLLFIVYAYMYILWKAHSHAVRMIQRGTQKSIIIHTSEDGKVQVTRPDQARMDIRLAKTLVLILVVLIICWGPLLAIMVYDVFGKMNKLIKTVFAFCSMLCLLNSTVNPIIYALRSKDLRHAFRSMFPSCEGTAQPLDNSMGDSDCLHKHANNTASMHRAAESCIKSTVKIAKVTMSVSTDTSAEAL"}, "source": "ChEMBL document CHEMBL5532738", "about": "“Chiral Me-2-arachidonoyl Glycerols: The First Potent Endocannabinoid Glyceride Templates with Stability to COX-2” (ACS Med Chem Lett, 2024)", "target": "Cannabinoid receptor 1 (Rattus norvegicus, UniProt P20272)", "experiment": "Agonist activity at rat CB1 receptor stably expressed in HEK293 cells assessed as inhibition of forskolin-stimulated cAMP accumulation incubated for 5 mins by Lance Ultra cAMP assay", "format": "functional, cell-based", "data": [{"smiles": "CCCCC/C=C\\C/C=C\\C/C=C\\C/C=C\\CCCC(=O)OC(CO)CO", "note": "[2-ARACHIDONOYLGLYCEROL]", "values": [{"measurement": "EC50", "result": 25, "unit": "nM"}]}]}
